Measurements from patent publication US20240189385A1, “KEAP1/NRF2 PROTEIN-LIKE POLYMERS” (Northwestern University, priority 2021, published 2024).

Amino acid sequences for entries named in this document (tags omitted).
UniProt Q14145, whole entry: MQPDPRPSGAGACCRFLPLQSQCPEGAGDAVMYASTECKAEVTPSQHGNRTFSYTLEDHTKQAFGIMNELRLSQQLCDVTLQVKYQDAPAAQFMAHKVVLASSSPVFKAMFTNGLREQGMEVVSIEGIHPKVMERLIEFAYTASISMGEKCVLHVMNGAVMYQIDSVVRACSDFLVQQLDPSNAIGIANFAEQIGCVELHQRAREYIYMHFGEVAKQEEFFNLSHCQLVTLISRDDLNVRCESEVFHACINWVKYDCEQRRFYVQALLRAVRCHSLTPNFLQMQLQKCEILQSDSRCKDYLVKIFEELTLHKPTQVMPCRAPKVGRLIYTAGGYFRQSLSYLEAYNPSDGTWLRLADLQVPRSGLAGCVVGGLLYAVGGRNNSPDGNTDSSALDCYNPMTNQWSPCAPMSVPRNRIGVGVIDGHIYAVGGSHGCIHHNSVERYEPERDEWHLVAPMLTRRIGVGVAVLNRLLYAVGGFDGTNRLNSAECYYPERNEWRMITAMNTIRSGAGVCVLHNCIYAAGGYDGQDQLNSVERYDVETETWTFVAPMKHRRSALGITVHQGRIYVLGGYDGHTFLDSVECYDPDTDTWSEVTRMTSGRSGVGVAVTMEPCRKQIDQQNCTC

Biological target: T1, human recombinant Keap1 (Homo sapiens, UniProt Q14145)
T1 construct: purchased BPS bioscience, San Diego, CA
Assay: fluorescence polarization competitive inhibition screening assay (Keap1/Nrf2 disruption)
Type: binding
Settings: 0.001 to 1000 μM; FIG. 24

Row | inhibition of the binding of Nrf2-peptide SEQ ID: 1 to Keap1 protein | Substance
1 | did not inhibit | ScrambleR PLP: scrambleRRRR polynorbornene dicarboxyimide-based brush polymer comprising SEQ ID NO: 146 (DELEPLTGFRRRR) peptide monomer, Example 14
2 | did not inhibit | Full Scramble PLP: full scramble polynorbornene dicarboxyimide-based brush polymer comprising SEQ ID NO: 143 (DERLERPLTRGFR) peptide monomer, Example 13 (polynorbornene brush polymer)
